Experimental data as given in US20050031607A1.

Key:
Glu-plasminogen = Glu-plasminogen (UniProt P00747)
PAI-1 = PAI-1 (UniProt P05121); test: equimolar enzyme and PAI-1 (2.0-8.0 nmol/L), 25° C., residual S2444 hydrolysis, plot of 1/[E] vs. time

“Ala^158-M5 (plasmin-resistant M5, Lys^158→Ala and Lys^300→His)” showed a Reaction Rate of Glu-plasminogen activation, Buffer Control (ΔA405 × 10^6/min^2) (Glu-plasminogen) of 0.9, a Reaction Rate of Glu-plasminogen activation, with D-dimer (1 µmol/L) (ΔA405 × 10^6/min^2) (Glu-plasminogen) of 1.84 and a Reaction Rate of Glu-plasminogen activation, with Fibrinogen (3 µmol/L) (ΔA405 × 10^6/min^2) (Glu-plasminogen) of 0.19. For the same substance, the Reaction Rate of Glu-plasminogen activation, with Fragment E (1 µmol/L) (ΔA405 × 10^6/min^2) (Glu-plasminogen) was 7.9 and the Reaction Rate of Glu-plasminogen activation, with SFM (1 µmol/L) (ΔA405 × 10^6/min^2) (Glu-plasminogen) was 0.62.
Substance “Ala^158-proUK (plasmin-resistant pro-UK, Lys^158→Ala)” has a Reaction Rate of Glu-plasminogen activation, Buffer Control (ΔA405 × 10^6/min^2) (Glu-plasminogen) of 4.4, a Reaction Rate of Glu-plasminogen activation, with D-dimer (1 µmol/L) (ΔA405 × 10^6/min^2) (Glu-plasminogen) of 4.3 and a Reaction Rate of Glu-plasminogen activation, with Fibrinogen (3 µmol/L) (ΔA405 × 10^6/min^2) (Glu-plasminogen) of 1.2. It also gave a Reaction Rate of Glu-plasminogen activation, with Fragment E (1 µmol/L) (ΔA405 × 10^6/min^2) (Glu-plasminogen) of 29.1 and a Reaction Rate of Glu-plasminogen activation, with SFM (1 µmol/L) (ΔA405 × 10^6/min^2) (Glu-plasminogen) of 3.8.
For “UK (urokinase, two-chain form prepared by plasmin activation of pro-UK)”, the F (fold of kcat/KM, UK as reference) (Glu-plasminogen) was 1 fold, the KM of Glu-plasminogen activation (Glu-plasminogen) was 11.4 µM and the kcat of Glu-plasminogen activation (Glu-plasminogen) was 0.302 s⁻¹. It also gave a kcat/KM of Glu-plasminogen activation (Glu-plasminogen) of 1.59 min/µM.
In the case of “UK (urokinase, two-chain form prepared by plasmin activation of pro-UK) (from UniProt P00749 21-178; P00749 179-431) (enzyme; other documents disagree on this pair)”, the second-order rate constant of inhibition (printed as Ki) (PAI-1) is reported as 1.7e+07 M⁻¹ s⁻¹.
“two-chain M5 (activated two-chain form of pro-urokinase mutant M5, Lys^300→His)” was tested, and the F (fold of kcat/KM against UK) (Glu-plasminogen) was 1.6 fold, the KM of Glu-plasminogen activation (Glu-plasminogen) was 3.6 µM and the kcat of Glu-plasminogen activation (Glu-plasminogen) was 0.153 s⁻¹. It also gave a kcat/KM of Glu-plasminogen activation (Glu-plasminogen) of 2.56 min/µM.
